# Earlier results, collected in publication PMC4554392 (International Journal of Nanomedicine, 2015).
# System: pathogen-induced macrophages isolated from human bone marrow
# Conditions: in vitro and in vivo
substance,measurement,value
human beta-defensin 3 [hBD3],"Proinflammatory cytokines, such as TNF-α and IL-6",completely blocked
